Data set [1] is described as follows: Apparent particle density by helium pycnometer. The note with it: n = 3, mean (± s.d.).
Data set [2] can be described thus: External specific surface area by Friedrich or Blaine permeametry. The note with it: Friedrich or Blaine permeameter, n = 3, mean (± s.d.).

For Dibasic calcium phosphate dihydrate, the Apparent particle density in data set [1] is 2.884 (±0.001) g/cm^3. In addition, the “External specific surface area” value in data set [2] is reported as 440 (±3.7) cm^2/g.

The record behind these values is patent US20110256229A1, “RAPID-ACTING PHARMACEUTICAL COMPOSITION” (published 2011).
